12 compounds from BindingDB's records for 30096649 can be followed below.

Protein sequences, listed by entry. Tags and fused reporters are not part of them. Residues count along the entry.
UniProt P22303, 32-614 limits assumed: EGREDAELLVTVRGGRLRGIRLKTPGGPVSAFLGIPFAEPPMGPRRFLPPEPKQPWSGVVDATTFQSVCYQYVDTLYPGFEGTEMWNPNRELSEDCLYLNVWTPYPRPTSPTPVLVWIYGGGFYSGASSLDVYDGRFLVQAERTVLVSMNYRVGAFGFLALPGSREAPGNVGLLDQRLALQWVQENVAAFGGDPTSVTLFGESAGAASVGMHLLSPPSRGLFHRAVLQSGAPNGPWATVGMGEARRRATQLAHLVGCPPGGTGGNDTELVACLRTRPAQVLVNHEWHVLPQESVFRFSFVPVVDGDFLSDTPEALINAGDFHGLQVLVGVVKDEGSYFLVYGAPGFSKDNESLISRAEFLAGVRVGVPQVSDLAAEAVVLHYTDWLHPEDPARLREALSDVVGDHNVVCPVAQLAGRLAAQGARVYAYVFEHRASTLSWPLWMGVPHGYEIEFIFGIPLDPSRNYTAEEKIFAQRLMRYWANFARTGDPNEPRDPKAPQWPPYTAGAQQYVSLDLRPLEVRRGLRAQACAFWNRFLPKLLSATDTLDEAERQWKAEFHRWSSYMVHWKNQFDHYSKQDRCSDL

For the assay, the target named is Acetylcholinesterase (Homo sapiens, UniProt P22303). Description: ASSAY_NAME: ChEMBL_1801925 (CHEMBL4274217) DESCRIPTION: Inhibition of AChE in human erythrocytes using acetylthiocholine as substrate measured for 1 min.
On to `CCCCN(C)Cc1cc(N)ccc1O`, for which the IC50 worked out at 125 µM.
Regarding `Nc1ccc(O)c(CN2CCCCC2)c1`, the IC50 turned out to be 456 µM.
Then `CCCN(CCC)Cc1cc(N)ccc1O`, with 131 µM; and `CCN(C)Cc1cc(N)ccc1O`, with 965 µM.
For the compound `CCCN(C)Cc1cc(N)ccc1O`, the half-maximal inhibitory concentration (IC50) was found to be 1150 µM.
Then `CCCCCCN(C)Cc1cc(N)ccc1O`, with 1050 µM; and `CCCCCN(C)Cc1cc(N)ccc1O`, with 805 µM.
`Nc1ccc(O)c(Cn2ccnc2)c1`: the IC50 came out at 482 µM.
Then `CNCc1cc(N)ccc1O`, with 334 µM.
Under `CN(C)Cc1cc(N)ccc1O` stands 1540 µM; under `Nc1ccc(O)c(CN2CCOCC2)c1`, 271 µM.
Compound `Nc1ccc(O)c(Cn2cccn2)c1` yielded an IC50 of 844 µM.
